Our source for the Results values is patent US20240402196A1 (Exact Sciences Corporation, priority 2018, published 2024).

By UniProt entry, the sequences of proteins in these tests, tags left out. Residues count along the entry.
UniProt P68871, 2-147 limits assumed: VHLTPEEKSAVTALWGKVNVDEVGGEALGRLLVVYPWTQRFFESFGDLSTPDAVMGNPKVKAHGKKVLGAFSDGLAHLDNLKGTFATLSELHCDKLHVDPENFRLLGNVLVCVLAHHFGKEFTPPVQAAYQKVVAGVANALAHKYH
UniProt P69905, 2-142 limits assumed: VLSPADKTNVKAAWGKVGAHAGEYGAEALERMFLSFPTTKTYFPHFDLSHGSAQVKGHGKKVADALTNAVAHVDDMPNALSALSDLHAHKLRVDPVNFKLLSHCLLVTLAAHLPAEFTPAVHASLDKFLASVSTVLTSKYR

This assay has as its target T1, Hb (Homo sapiens, UniProt P68871+P69905).
T1 construct: To assess the stability of hemoglobin in stool samples, samples were exposed to simulated shipping stress conditions; from tissue; host or cells: stool samples
The assay can be described thus: Appendix B additive screen, % Hb Recovery.

As for Albumin, Human, the Results result is reported as “No Improvement”.
